In patent US9327023B2, “HER2 targeting agent treatment in non-HER2-amplified cancers having HER2 expressing cancer stem cells” (The Regents of the University of Michigan, priority 2011, dated 2016):
“Also recorded” adds a separate entry of the source.

Columns and labels:
[1] = test system: MCF7; experiment: mammosphere assay; format: cell-based, human; conditions: MCF7, 1-week trastuzumab 20 μg/μl
Method: (§1) Human breast cancer cell lines, MCF7, ZR75-1, BT474, SKBR3 and SUM159 were employed. The MCF-7 cell line was obtained from ATCC and fingerprinting was done on the MCF-7shHER-2 and MCF-7shVector cell lines, validating that they were MCF-7 prior to injections into tibiae. Cell lines were grown using recommended culture condition. Trastuzumab was obtained from the Pharmacy, University of Michigan Comprehensive Cancer Center.
(§2) Single cells were initially plated on ultralow attachment plate at a density of 100,000 cells/ml with serum-free mammary epithelial basal medium (Mammocult, Stemcell Technologies). Mammosphere were counted manually under light microscope on the 7th day. Then, mammosphere dissociation was performed and re-cultured with the density of 10,000 cells/ml and further assessed for secondary and tertiary mammosphere formation. Efficiency of sphere forming was analyzed from at least 3 independent repeats.

[2] = test system: SUM159; experiment: mammosphere assay; format: cell-based, human; conditions: basal/claudin low SUM159
Method: as §1, §2

[3] = test system: ZR75-1; experiment: mammosphere assay; format: cell-based, human; conditions: ZR75-1, 1-week trastuzumab 20 μg/μl
Method: as §1, §2

[4] = test system: MCF7; experiment: Aldefluor assay in vitro; format: cell-based, human
Method: as §1
(§3) The Aldefluor kit (Stemcells Technology) was used according to the manufacturer's protocol to identify and isolate the population with high Aldehyde dehydrogenase activities using flow cytometry. To distinguish between ALDH-positive and ALDH-negative cells, a fraction of cells were incubated under identical condition in the presence of 10-fold molar excess of ALDH inhibitor, diethylaminobenzaldehyde (DEAB). Both samples and negative control were incubated in 37° C. for 40 minutes. For FACS analysis the gates were normalized with the Aldefluor-stained cells treated with DEAB.

[5] = test system: MDA-MB231; experiment: Aldefluor assay in vitro; format: cell-based, human
Method: as §1, §3

[6] = test system: SUM159; experiment: Aldefluor assay in vitro; format: cell-based, human
Method: as §1, §3

[7] = test system: ZR75-1; experiment: Aldefluor assay in vitro; format: cell-based, human; conditions: ZR75-1 (b158 prints ZR25-1)
Method: as §1, §3

[8] = test system: MCF7 cells (parental, HER2+, PTEN-, HER2+PTEN-); experiment: tumorsphere assay, secondary spheres; format: cell-based, human
Method: (§4) Single cells were plated on ultra-low attachment plates at a density of 1×10^5/ml and grown for 7 days in a mammocult medium (Stem Cell Technologies). After the treatment of primary spheres, they were dissociated into single-cell suspension and plated at a density of 5×10^3-1×10^4/ml for the subsequent passages. Secondary spheres were counted after 5-7 days in culture.

[9] = test system: SUM159 cells (parental, HER2+, PTEN-, HER2+PTEN-); experiment: tumorsphere assay, secondary spheres; format: cell-based, human
Method: as §4

[10] = test system: MCF7-HER2+ and MCF7-HER2+PTEN- cells; experiment: Aldefluor assay in vitro, engineered cells; format: cell-based, human; conditions: for reduced the Aldefluor-positive population: MCF7-HER2+ cells; for Aldefluor-positive population: MCF7-HER2+PTEN- cells
Method: (§5) To measure ALDH activity, the Aldefluor assay was carried out according to manufacturer's guidelines (StemCell Technologies, Inc., Durham, N.C.). Indicated cells were incubated with fluorophore-conjugated CD44 or CD24 antibodies alone or in combination on ice for 30 min, washed with Hank's balanced salt solution (HBSS), and resuspended in DAPI containing HBSS buffer for flow cytometry analyses.

[11] = test system: SUM159-HER2+ and SUM159-HER2+PTEN- cells; experiment: Aldefluor assay in vitro, engineered cells; format: cell-based, human; conditions: for reduced the Aldefluor-positive population: SUM159-HER2+ cells; for Aldefluor-positive population: SUM159-HER2+PTEN- cells
Method: as §5

[12] = test system: MCF7-HER2+ xenografts; experiment: MCF7-HER2+ xenografts; format: in vivo, NOD/SCID mice
Method: (§6) Treatments for all early settings were 8 weeks long. […] Drug doses were as described in early setting.
(§7) Experiments were conducted during development of embodiments of the present invention to examine the biological consequences of increased CSC populations generated by HER2 overexpression and PTEN knockdown by implanting these cells into the mammary fat pads of NOD/SCID mice.

[13] = test system: MCF7-HER2+PTEN- xenografts; experiment: MCF7-HER2+PTEN- xenografts; format: in vivo, NOD/SCID mice
Method: as §6, §7

[14] = test system: IL6; experiment: IL6 secretion of BT474 cells under trastuzumab; format: cell-based, human; conditions: BT474-DsRed cells, 3 days of trastuzumab treatment
Method: To determine whether induction of the CSC phenotype was dependent on IL6 production, the effect of addition of IL6 receptor antibody on induction of the CSC phenotype was assessed. […] The ability of the anti-IL6R antibody to affect the CD44^+/CD24^− population in Sum159 cells, which lack the expression of the luminal CD24 marker, was examined.

[15] = test system: BT474-DsRed and BT474-PTEN- cells; experiment: CD44+/CD24- flow cytometry of BT474 cells; format: cell-based, human; conditions: for proportion of CD44+/CD24- cells: BT474-PTEN cells
Method: as §5
However, there was approximately a 2-fold increase in IL6 secretion when cells were treated for 3 weeks or longer (SEE FIG. 14A). […] The effects of trastuzumab-mediated IL6 production on CSCs were also tested. […] In contrast, downregulation of PTEN in these cells generated a population that contained approximately 10% CD44^+/CD24^− cells (FIG. 14B). […] To determine whether induction of the CSC phenotype was dependent on IL6 production, the effect of addition of IL6 receptor antibody on induction of the CSC phenotype was assessed. […] The ability of the anti-IL6R antibody to affect the CD44^+/CD24^− population in Sum159 cells, which lack the expression of the luminal CD24 marker, was examined. […] This discrepancy may be explained by the existence of different stem cell populations in different breast cancer subtypes.

[16] = test system: p65 NF-kB; experiment: p65 NF-kB phosphorylation; format: cell-based, human
Method: To determine whether NF-kB activation was involved in these processes, p65 NF-kB phosphorylation was assessed.

[17] = test system: BT474-PTEN- cells; experiment: mRNA expression of cytokines, EMT and epithelial markers; format: cell-based, human
[18] = test system: BT474 cells; experiment: tumorspheres in suspension cultures of BT474 cells; format: cell-based, human
Method: as §4

[19] = test system: BT474 cells; experiment: cell growth / viable cells of BT474 cells; format: cell-based, human
[20] = test system: trastuzumab-sensitive BT474-DsRed xenografts; experiment: BT474-DsRed xenografts; format: in vivo, NOD/SCID mice
[21] = test system: trastuzumab-resistant BT474-PTEN- xenografts; experiment: BT474-PTEN- xenografts; format: in vivo, NOD/SCID mice
Method: as §6
Experiments were conducted during development of embodiments of the present invention to examine the effect of anti-IL6R antibody on trastuzumab-sensitive BT474-DsRed and trastuzumab-resistant BT474-PTEN^− xenografts. […] To determine the effects of these treatments on the development of metastasis, we excised primary BT474-PTEN^− tumors after 8 weeks of treatment and assessed subsequent development of local and distant metastasis by luciferase imaging (FIG. 7D). […] The effects of these treatments were also reflected in human cytokine levels secreted in the bloodstream of these animals as determined by ELISA (FIG. 7E).

[22] = test system: breast CSCs (tumor-initiating cells); experiment: reimplantation assay of residual tumor cells into secondary mice; format: in vivo; conditions: residual tumors from treated mice
Source text: One of the hallmarks of CSC model is their ability to initiate tumors in secondary reimplantation assays (Clarke et al., 2006; herein incorporated by reference in its entirety).

[23] = test system: HER2 amplified breast cancers; conditions: addition of trastuzumab to chemotherapy compared to chemotherapy alone, adjuvant trials; cited from earlier work

With trastuzumab the tertiary mammosphere formation [1] was “significantly reduced; also recorded: significantly lower number”, the mammosphere formation [2] was “no effect” and the tertiary mammosphere formation [3] was “significantly reduced; also recorded: significantly lower number”. For the same substance, the “percent of Aldefluor-positive cells” value [4] was “significantly reduced; also recorded: lower percentage”, the Aldefluor-positive populations [5] was “no effect; also recorded: does not have suppressive effect” and the Aldefluor-positive populations [6] was “no effect; also recorded: does not have suppressive effect”. The “percent of Aldefluor-positive cells” value [7] was “significantly reduced; also recorded: lower percentage”, the secondary tumorsphere formation ([8]; MCF7-HER2+PTEN- cells) was “no significant effect; also recorded: not affected” and the secondary spheres ([8]; MCF7-PTEN- cells) was “not affected”. The tumorsphere formation ([8]; parental MCF7 cells, primary spheres treated 5-7 days) was “no significant effect”, the secondary tumorsphere formation ([9]; SUM159-HER2+PTEN- cells) was “no significant effect; also recorded: not affected” and the secondary spheres ([9]; Sum159-PTEN- cells) was “not affected”. The tumorsphere formation ([9]; parental SUM159 cells, primary spheres treated 5-7 days) was “no significant effect”, the “reduced the Aldefluor-positive population” value [10] was 75% and the “reduced the Aldefluor-positive population” value ([10]; listed as Trastuzumab) was “more than 50%”. For the same substance, the Aldefluor-positive population [10] was “non-significant change”, the Aldefluor-positive population ([10]; listed as Trastuzumab) was “no effect” and the “reduced the Aldefluor-positive population” value [11] was 50%. The “reduced the Aldefluor-positive population” value ([11]; listed as Trastuzumab) was “more than 50%”, the Aldefluor-positive population [11] was “non-significant change” and the Aldefluor-positive population ([11]; listed as Trastuzumab) was “no effect”. For the same substance, the “percentage of Aldefluor-positive tumor cells reduced” value ([12]; MCF7-HER2+ tumors) was “over 50%”, the “tumor size / growth” value ([12]; MCF7-HER2+ xenografts, trastuzumab treatment) was “reduced tumor size; also recorded: inhibition of tumor growth” and the Aldefluor-positive populations ([13]; MCF7-HER2+PTEN- tumors) was “slight increase”. The “response of tumors to trastuzumab” value ([13]; MCF7-HER2+PTEN- xenografts) was “de novo resistance; also recorded: resistant”, the IL6 levels [14] was “modest decrease” and the “proportion of CD44+/CD24- cells” value ([15]; trastuzumab 3 weeks) was 51%. For the same substance, the “proportion of CD44+/CD24- cells” value ([15]; trastuzumab 3 days (about 10% without)) was 32%, the “CD44+/CD24- cells” value ([15]; parental BT474-DsRed cells after trastuzumab treatment) was “not significantly altered” and the NF-kB phosphorylation ([16]; BT474-PTEN- cells compared to parental cells) was “Increased”. The NF-kB phosphorylation ([16]; SKBR3-PTEN- cells compared to parental cells) was “Increased”, the “epithelial-associated genes E-cadherin, EpCAM, and Claudin” value [17] was “downregulation” and the “reduced the sphere forming cells” value ([18]; BT474 cells) was “more than 50%”. For the same substance, the sphere formation ([18]; BT474 cells in the presence of IL6 or CM) was “failed to inhibit”, the “cell growth / viability” value ([19]; BT474-PTEN- cells) was “unaffected” and the “cell growth / viability” value ([19]; BT474-PTEN- cells, listed as Trastuzumab) was “no effect”. For the same substance, the “cell growth / viability” value ([19]; parental BT474 cells with CM from BT474-PTEN-LTT cells or recombinant IL6) was “resistant”, the “cell growth / viability” value ([19]; parental BT474 cells with CM from BT474-PTEN-LTT cells or recombinant IL6, listed as Trastuzumab) was “no effect” and the “growth of BT474-DsRed xenografts” value ([20]; 7-week period, compared to saline) was “significantly inhibited”. For the same substance, the “tumors in trastuzumab-treated mice began to grow (acquired resistance)” value ([20]; mouse, in vivo) was at most 5 Week, the “growth of BT474-PTEN- xenografts” value ([21]; early treatment) was “accelerated; also recorded: no effect” and the “secondary tumors and distant metastasis after excision of primary tumors” value ([21]; excised after 8 weeks of treatment, luciferase imaging) was “quickly developed secondary tumors and distant metastasis”. The “serum IL6 levels” value ([21]; human specific ELISA) was “markedly increasing; also recorded: significantly higher”, the “frequency of breast CSCs” value [22] was “increased” and the “reduction in recurrence rate” value [23] was 50%.
